Test results from PubChem BioAssay AID1439 (NMMLSC, 2008).
The list shows a part of the results, in another mix than the full data. Some tests of the compounds listed are not included; inactive here does not mean inactive elsewhere. Results filed as inconclusive are left out. Active and inactive are the calls of the source. Cut-off read from the data, not from the text of the source: active = binding response below about 49% or above about 150%; inconclusive = no clear call, values can overlap the other calls; inactive = in between.

By UniProt entry, the sequences of proteins in these tests, tags left out.
UniProt P09471, whole entry: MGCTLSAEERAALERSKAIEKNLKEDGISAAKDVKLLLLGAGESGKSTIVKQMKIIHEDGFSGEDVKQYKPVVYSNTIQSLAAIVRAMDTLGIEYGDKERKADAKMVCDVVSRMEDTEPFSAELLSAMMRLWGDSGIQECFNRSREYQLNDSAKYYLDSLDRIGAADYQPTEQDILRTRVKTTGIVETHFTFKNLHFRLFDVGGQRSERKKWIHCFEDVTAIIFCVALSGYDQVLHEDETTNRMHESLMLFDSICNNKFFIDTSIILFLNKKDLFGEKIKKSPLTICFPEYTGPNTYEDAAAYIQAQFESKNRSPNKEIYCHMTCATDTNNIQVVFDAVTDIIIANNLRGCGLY

Each compound was assayed against Guanine nucleotide-binding protein G(o) subunit alpha (Homo sapiens) (UniProt P09471) (assay: compounds changing RGS7 association with Galphao – biochemical, multiplexed bead flow cytometry, primary screen (AID 1439;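 note: fluorescent Galphao held in activated GDP-AlF4 state binding bead-coupled RGS7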)). Conditions: at 10 µM, actives lie on both sides.
With O=C(NCC1(N2CCCCC2)CCCCC1)c1cc([N+](=O)[O-])ccc1Cl the binding response (% of control) was inactive: 104%. With CC(C)N1C(=O)CC2(CCN(CCOC(=O)C(O)(c3ccccc3)c3ccccc3)CC2)C1=O the binding response (% of control) was inactive: 102%. CN(C)C1CCCC1OC(=O)C(O)(c1ccccc1)c1ccccc1 (stereo not drawn) was tested, and the binding response (% of control) was inactive: 101%. For Cc1ccccc1C(=O)NCC1(N2CCCCC2)CCCCC1, the binding response (% of control) was inactive: 106%. For C=CCN1CCN(CCOC(=O)C(O)(c2ccccc2)c2ccccc2)CC1, the binding response (% of control) was inactive: 103%. For CCN1CCCC(OC(=O)C2(O)c3ccccc3C=Cc3ccccc32)C1 (stereo not drawn), the binding response (% of control) was inactive: 113%. In the case of O=C(OC1CN2CCC1CC2)C(CO)(c1ccccc1)c1ccccc1 (stereo not drawn), the binding response (% of control) is reported as inactive: 101%. With CN(C)c1cccc(C(=O)NCC2(N(C)C)CCCCC2)c1 the binding response (% of control) was inactive: 105%.
